From publication PMC10881042

Biological target: PKA type I regulatory subunit RIα, in H295R adrenal cells (human (endogenous in H295R)) (UniProt P10644)

residence of photoactivatable-mCherry PKAc at the site of photoactivation after 12.5 s in H295R cells with smAKAP-GFP and RIα-iRFP: 65%
Substance: V5-tagged PKAc-W196G, in H295R adrenal cells (enzyme)
